Source: patent publication US6737397B1, “Control of cancer growth through the interaction of [MET5]-enkephalin and the zeta receptor” (The Penn State Research Foundation, priority 1996, dated 2004)

Protein sequences, listed by entry. Tags and fused reporters are not part of them. Lines headed by an entry give the natural chain unless they say otherwise; changes in a name come on top.
UniProt P41145: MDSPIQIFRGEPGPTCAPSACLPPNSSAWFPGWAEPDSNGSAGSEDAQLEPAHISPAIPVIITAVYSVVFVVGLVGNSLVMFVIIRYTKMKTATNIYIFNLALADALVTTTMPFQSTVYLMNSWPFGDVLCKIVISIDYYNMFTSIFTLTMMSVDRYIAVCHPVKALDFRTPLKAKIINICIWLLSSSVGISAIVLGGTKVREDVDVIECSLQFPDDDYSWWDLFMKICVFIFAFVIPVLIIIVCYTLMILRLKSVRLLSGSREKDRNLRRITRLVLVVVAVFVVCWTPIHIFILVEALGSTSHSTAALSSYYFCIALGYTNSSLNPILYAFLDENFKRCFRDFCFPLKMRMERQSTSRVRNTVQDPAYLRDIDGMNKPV

Target: κ-opioid receptor (Homo sapiens, UniProt P41145)
Assay: [3H]U-69593 binding to HT-29 nuclear (P1) and membrane (P2) homogenates

SMILES: CN(C(=O)Cc1ccccc1)[C@H]1CC[C@@]2(CCCO2)C[C@@H]1N1CCCC1
- Bmax, fmol/mg protein (P1 fraction): *
- Kd, nM (P1 fraction): *
- Bmax, fmol/mg protein (P2 fraction): 13.9 ± 1.5 fmol/mg protein
